What was measured:
[1] = target: KDR (VEGFR-2, Flk-1), full-length receptor on cells (human) (UniProt P35968); test: saturation binding of peptide/neutravidin-HRP complex to KDR-transfected 293H cells; P12-F-XB, one experiment
[2] = target: KDR (VEGFR-2, Flk-1), full-length receptor on cells (human), P35968; test: saturation binding of peptide/neutravidin-HRP complex, KDR- minus mock-transfected 293H cells; settings: remark: other sources report otherwise

The chains behind the UniProt entries cited, without tags or fusion partners. Residues count along the entry.
UniProt P35968, 20-1356: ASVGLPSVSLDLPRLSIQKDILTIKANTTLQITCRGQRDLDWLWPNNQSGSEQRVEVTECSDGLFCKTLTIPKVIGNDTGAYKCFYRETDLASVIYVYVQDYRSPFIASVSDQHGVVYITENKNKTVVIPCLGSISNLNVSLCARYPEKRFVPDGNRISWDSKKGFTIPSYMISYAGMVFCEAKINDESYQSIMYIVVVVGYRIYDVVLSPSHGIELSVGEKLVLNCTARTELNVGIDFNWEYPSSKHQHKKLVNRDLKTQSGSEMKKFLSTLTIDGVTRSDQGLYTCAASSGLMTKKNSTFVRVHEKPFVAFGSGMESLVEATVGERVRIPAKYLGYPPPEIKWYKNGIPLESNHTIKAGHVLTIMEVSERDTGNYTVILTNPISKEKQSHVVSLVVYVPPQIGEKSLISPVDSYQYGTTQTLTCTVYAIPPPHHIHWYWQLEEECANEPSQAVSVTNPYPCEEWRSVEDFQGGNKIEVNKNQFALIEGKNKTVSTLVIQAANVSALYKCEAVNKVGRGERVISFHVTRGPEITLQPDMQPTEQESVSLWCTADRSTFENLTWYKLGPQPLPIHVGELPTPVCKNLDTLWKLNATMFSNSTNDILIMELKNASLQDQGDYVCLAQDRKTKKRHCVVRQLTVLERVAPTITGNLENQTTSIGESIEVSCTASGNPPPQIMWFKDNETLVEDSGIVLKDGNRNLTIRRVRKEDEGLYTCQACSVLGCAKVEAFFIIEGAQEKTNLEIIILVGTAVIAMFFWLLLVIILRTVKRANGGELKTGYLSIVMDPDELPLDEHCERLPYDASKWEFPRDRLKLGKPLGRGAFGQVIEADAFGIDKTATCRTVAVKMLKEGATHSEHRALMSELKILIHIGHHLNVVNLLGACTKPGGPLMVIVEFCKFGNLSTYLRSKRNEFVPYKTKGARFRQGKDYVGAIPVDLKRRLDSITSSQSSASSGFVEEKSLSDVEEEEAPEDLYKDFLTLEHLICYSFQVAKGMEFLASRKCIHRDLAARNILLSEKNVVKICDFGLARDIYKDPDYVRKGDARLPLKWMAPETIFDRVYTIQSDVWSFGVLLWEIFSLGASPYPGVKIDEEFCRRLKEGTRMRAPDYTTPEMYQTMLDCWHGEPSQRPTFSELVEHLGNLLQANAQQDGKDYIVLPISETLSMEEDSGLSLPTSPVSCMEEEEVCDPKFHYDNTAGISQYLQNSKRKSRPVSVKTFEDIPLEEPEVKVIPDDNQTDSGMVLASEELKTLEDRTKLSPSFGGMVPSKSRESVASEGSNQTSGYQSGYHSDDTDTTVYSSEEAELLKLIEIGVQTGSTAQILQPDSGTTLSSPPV

Row | Kd [1] | Kd [2] | Binder
1 | 3.02 nM | – | AGPTWCEDDWYYCWLFGTK (Ac-; Cys6-Cys13 disulfide assumed by paragraph 574; J between Thr18 and the C-terminal Lys; Lys(Biotin-JJ); -NH2) [P12-F-XB on neutravidin-HRP]
2 | – | 14.9 nM | AGPKWCEEDWYYCMITGTGGGK (here or on the partner: Ac-; C6-C13 disulfide; K22(Biotin-JJ); -NH2) [P5-XB (4X) on neutravidin-HRP]

— US20050147555A1
